Reference: paper PMC4575187 (PLoS ONE, 2015)

Test system: influenza A/Puerto Rico/8/34 (H1N1)
Format: cell-based, influenza A virus

GLFGAIAGFIKNGWKGMIKG-NH2 [HA-FP-1]
antiviral activity from pre-incubation compared with post infection: much more potent

Ends that are not written are not given here.
